Assay: in vivo monitoring of radiolabeled analyte uptake in tissue with subcutaneous fiber optic beta radiation probes

Substance: C-14 labeled 5-Fluorouracil [^14C-5FU]
- time after dosing within which concentrations peak (120 μCi IV in tail vein, 300 gram Fisher 344 rat, probes in flank tumor and normal scapula tissue, study #6, FIG. 12B): 10 to 30 min
- time of ^14C concentration peak, tumor tissue versus normal tissue (120 μCi IV in tail vein, 300 gram Fisher 344 rat, study #6, FIG. 12B): peaks earlier in the tumor tissue than in the normal tissue
- absorption into flank tissue and scapular tumor after injection (250 μCi intraperitoneal, tumor bearing 270 g Fisher 344 rat, dual probe, study #5, FIG. 12A): relatively slowly absorbed
- time from injection after which ^14C concentrations continue to rise (250 μCi intraperitoneal, tumor bearing 270 g Fisher 344 rat, study #5, FIG. 12A): 90 to 100 min

— patent US7011814B2, “Systems, methods and devices for in vivo monitoring of a localized response via a radiolabeled analyte in a subject” (Sicel Technologies, Inc., priority 2001, dated 2006)
